Laboratory results: ChEMBL document CHEMBL5726182, “1,3-thiazol-2-yl substituted benzamides” (2019)
pIC50: −log10 of the molar value.

Target: T1, P2X purinoceptor 2 (Homo sapiens, UniProt Q9UBL9)
T1 sequence (Q9UBL9 whole entry): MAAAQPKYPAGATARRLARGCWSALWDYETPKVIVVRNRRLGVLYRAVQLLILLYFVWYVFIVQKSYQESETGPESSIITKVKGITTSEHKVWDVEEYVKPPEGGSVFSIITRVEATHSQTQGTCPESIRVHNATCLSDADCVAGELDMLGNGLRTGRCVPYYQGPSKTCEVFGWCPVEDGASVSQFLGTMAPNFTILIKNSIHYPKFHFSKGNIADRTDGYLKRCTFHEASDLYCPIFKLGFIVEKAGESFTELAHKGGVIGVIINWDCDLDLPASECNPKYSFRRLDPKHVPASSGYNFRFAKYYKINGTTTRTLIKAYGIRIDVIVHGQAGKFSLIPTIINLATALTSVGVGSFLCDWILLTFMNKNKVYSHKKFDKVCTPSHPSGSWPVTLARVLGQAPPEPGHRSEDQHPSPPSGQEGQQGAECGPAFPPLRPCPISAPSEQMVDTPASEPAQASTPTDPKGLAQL

SMILES	pIC50
Cc1cnc(-c2cc(OC(C)C(C)O)cc(C(=O)N[C@H](C)c3ccc(C(F)(F)F)nn3)c2)s1 (single isomer, unassigned)	6.15
Cc1cnc(-c2cc(OC3CCCNC3)cc(C(=O)N[C@H](C)c3cnc(C(F)(F)F)nc3)c2)s1 (single isomer, unassigned)	5.78
Cc1cnc(-c2cc(OCC3(F)CCCN(C)C3)cc(C(=O)N[C@H](C)c3cnc(C(F)(F)F)nc3)c2)s1 (single isomer, unassigned)	6.51
Cc1cnc(-c2cc(OC3CCN(C)C(C(F)(F)F)C3)cc(C(=O)N[C@H](C)c3cnc(C(F)(F)F)nc3)c2)s1 (single isomer, unassigned)	6.96
